Patent publication US8609836B2, “4-aryl-2-anilino-pyrimidines” (Janssen Pharmaceutica NV, priority 2008, dated 2013)

Chains of the proteins cited; added tags and fusions are not shown.
UniProt O00444, whole entry: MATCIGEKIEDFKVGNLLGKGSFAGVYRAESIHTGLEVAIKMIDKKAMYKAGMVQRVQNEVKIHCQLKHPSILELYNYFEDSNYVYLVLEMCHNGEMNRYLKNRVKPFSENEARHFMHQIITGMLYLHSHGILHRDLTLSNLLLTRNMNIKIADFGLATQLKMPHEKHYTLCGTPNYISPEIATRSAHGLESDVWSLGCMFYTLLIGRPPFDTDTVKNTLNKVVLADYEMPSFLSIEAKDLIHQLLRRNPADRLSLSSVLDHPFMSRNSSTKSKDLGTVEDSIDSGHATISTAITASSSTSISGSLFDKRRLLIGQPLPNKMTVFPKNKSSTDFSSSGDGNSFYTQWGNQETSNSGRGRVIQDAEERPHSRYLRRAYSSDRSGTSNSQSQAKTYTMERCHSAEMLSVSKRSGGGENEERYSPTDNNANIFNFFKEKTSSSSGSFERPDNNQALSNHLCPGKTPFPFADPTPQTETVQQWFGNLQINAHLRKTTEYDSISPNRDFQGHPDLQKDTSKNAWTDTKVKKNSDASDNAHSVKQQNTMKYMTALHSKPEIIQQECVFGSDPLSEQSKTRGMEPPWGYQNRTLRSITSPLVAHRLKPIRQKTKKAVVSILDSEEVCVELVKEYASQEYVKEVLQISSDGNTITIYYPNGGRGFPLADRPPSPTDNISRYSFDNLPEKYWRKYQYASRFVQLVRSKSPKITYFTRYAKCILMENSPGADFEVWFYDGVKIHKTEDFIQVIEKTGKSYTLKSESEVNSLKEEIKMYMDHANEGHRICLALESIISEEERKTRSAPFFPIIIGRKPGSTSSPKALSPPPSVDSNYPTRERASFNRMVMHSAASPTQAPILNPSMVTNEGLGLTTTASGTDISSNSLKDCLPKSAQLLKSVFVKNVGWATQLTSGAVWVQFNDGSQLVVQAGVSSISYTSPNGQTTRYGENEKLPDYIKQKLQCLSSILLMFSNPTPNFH
UniProt P53350, whole entry T210D: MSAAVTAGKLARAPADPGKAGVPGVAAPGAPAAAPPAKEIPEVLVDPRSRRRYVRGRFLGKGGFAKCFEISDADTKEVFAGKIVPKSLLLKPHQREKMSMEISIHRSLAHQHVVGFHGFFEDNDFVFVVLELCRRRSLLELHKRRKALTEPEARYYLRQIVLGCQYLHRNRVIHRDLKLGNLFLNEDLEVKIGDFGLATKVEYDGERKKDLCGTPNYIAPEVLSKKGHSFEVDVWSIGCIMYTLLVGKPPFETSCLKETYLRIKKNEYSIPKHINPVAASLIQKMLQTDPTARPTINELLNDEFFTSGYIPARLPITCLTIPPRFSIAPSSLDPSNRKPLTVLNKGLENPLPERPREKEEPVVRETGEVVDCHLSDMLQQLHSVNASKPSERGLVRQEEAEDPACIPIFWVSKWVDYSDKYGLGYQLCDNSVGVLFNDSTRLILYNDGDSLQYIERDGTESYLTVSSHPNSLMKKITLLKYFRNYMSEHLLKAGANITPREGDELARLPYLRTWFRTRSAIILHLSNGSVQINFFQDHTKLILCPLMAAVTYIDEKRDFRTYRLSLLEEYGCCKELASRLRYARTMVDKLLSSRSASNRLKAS
UniProt Q96GD4, whole entry: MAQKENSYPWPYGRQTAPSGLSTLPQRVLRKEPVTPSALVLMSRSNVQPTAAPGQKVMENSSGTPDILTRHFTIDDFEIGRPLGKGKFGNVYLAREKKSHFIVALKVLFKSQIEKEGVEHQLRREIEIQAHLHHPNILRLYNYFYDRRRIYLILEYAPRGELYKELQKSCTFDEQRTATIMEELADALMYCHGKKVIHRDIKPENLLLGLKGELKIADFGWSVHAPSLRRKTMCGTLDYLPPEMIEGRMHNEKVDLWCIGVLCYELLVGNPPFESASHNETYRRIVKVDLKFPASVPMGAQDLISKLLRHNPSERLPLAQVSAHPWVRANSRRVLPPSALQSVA
UniProt P49841, whole entry: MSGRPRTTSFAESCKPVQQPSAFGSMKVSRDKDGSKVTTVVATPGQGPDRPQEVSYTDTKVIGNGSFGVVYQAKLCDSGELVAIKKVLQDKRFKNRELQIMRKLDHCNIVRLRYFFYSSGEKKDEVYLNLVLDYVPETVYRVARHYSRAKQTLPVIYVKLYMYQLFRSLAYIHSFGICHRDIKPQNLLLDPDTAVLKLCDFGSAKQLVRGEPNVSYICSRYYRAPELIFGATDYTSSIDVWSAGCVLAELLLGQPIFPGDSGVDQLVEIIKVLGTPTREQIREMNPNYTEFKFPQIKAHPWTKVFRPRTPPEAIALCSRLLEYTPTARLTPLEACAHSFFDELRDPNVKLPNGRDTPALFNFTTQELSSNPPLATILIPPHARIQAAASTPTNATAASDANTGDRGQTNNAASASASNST
UniProt P06493, whole entry: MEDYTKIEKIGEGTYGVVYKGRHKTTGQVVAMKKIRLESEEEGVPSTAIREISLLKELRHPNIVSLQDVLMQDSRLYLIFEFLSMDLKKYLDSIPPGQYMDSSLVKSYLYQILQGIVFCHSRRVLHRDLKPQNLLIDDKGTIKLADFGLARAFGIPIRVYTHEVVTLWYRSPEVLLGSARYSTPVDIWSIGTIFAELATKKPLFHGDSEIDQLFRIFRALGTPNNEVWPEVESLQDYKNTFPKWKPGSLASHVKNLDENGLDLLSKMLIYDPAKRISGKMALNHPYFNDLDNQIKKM
UniProt P11802, whole entry: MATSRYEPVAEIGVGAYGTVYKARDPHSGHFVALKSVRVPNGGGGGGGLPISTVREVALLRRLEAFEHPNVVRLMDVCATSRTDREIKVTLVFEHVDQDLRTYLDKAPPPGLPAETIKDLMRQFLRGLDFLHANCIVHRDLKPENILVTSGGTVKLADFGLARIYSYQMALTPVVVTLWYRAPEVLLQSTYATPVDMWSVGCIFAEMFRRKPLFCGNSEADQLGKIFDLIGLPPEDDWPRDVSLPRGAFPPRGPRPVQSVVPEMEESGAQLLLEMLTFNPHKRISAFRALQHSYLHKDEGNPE
UniProt Q9NYY3, whole entry: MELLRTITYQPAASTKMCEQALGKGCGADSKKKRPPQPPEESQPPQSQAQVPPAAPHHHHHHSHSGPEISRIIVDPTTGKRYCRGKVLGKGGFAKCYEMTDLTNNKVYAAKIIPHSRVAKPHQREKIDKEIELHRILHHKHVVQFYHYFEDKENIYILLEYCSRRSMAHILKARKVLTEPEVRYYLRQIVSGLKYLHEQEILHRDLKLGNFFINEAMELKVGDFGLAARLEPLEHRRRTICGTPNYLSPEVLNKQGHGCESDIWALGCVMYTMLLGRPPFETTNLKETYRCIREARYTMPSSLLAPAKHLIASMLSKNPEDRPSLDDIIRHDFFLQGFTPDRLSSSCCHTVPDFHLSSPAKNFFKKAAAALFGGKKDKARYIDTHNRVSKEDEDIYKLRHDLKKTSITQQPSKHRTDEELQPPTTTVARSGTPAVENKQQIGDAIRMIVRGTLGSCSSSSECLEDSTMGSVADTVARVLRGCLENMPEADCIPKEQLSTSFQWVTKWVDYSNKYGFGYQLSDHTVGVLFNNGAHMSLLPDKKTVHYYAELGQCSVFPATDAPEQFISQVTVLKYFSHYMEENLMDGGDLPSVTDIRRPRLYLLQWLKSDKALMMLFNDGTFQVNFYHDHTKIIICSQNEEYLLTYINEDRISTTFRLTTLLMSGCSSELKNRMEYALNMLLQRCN
UniProt Q9H4B4, whole entry: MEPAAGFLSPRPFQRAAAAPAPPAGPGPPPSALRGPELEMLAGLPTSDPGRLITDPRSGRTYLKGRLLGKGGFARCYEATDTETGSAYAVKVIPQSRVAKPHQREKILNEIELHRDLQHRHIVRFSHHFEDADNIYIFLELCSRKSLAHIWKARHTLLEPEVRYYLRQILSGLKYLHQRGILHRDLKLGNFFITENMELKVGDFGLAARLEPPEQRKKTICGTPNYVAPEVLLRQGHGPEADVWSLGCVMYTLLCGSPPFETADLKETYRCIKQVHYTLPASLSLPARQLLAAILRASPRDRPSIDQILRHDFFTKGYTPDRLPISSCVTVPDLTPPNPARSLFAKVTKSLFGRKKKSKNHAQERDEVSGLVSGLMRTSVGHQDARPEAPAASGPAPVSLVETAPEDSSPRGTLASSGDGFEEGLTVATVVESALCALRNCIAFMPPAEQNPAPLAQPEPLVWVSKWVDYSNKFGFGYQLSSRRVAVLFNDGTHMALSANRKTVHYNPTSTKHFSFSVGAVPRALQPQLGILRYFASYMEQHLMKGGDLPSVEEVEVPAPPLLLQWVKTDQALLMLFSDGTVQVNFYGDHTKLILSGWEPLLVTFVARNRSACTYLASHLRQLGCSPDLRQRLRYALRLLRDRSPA
UniProt P24385, whole entry partner: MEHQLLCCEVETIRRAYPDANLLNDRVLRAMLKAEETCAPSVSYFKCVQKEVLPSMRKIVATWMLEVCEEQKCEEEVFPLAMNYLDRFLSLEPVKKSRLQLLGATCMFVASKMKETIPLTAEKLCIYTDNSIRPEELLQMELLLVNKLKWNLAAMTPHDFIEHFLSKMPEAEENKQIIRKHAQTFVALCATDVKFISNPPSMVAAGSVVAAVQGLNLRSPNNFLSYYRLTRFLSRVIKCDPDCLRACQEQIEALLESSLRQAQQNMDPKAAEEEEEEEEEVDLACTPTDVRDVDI
UniProt P14635, whole entry partner: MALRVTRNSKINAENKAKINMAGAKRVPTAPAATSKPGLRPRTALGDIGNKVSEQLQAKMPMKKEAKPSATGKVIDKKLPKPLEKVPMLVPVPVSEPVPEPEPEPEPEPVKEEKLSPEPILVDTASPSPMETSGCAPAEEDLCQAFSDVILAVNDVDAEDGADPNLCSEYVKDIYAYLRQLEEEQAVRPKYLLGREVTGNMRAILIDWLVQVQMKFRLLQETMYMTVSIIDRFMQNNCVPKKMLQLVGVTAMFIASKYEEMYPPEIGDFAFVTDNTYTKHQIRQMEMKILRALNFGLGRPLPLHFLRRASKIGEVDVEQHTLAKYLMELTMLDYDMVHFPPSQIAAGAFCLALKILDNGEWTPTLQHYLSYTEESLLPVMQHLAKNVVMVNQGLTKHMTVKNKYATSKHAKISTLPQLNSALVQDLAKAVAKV

What was measured:
PLK4 (h) = PLK4 (h) (Homo sapiens, UniProt O00444); test: PLK-4 human kinase inhibition, scintillation proximity assay (SPA); format: biochemical
PLK1 T210D (h) = PLK1 T210D (h) (Homo sapiens, UniProt P53350, T210D); test: PLK1 human kinase inhibition, SPA
HCT-116 = test: Cellular proliferation assay (Alamar blue), HCT-116; details: 10% FCS; 72 hours with compound; Alamar blue 4 h
U87-MG = test: Cellular proliferation assay (Alamar blue), U87-MG; details: 10% FCS; 72 hours with compound; Alamar blue 6 h
A2780 = test: Cellular proliferation assay (Alamar blue), A2780; details: 10% FCS; 72 hours with compound; Alamar blue 24 h
MDA-MB-231 = test: Cellular proliferation assay (Alamar blue), MDA-MB-231; details: 10% FCS; 72 hours with compound; Alamar blue 24 h
AuroraB (h) = AuroraB (h) (Homo sapiens, UniProt Q96GD4); test: Aurora-B human kinase inhibition, SPA
GSK3β (h) = GSK3β (h) (Homo sapiens, UniProt P49841); test: GSK-3β human kinase inhibition, SPA
CDK1/CyclinB (h) = CDK1/CyclinB (h) (Homo sapiens, UniProt P06493); test: CDK1/CyclinB human kinase inhibition, Invitrogen's FRET assay (Z'lyte)
CDK4/CyclinD1 (h) = CDK4/CyclinD1 (h) (Homo sapiens, UniProt P11802); test: CDK4/CyclinD1 human kinase inhibition, SPA with GST-pRb substrate; format: biochemical
Description: The in vitro inhibition of a panel of kinases was assessed using either the scintillation proximity assay (SPA) as described by Cook, N. D. et al., Advances in Experimental Medicine and Biology (1991), 36; p. 525-528.
In the SPA technology the activity of the kinase of interest is measured using an appropriate biotinylated substrate that is incubated with the aforementioned kinase protein in the presence of (^33P) radiolabeled ATP. (^33P) Phosphorylation of the substrate is subsequently measured through binding of the phosphorylated substrate to streptavidine coated beads that are based on the scintillant poly(vinyl toluene) (PVT-Beads). The scintillation intensity is detected by imaging on Leadseeker.
All kinases are pre-diluted to a 10× working concentration prior to addition into the assay. The composition of the dilution buffer for each kinase is detailed below.
In a final reaction volume of 30 μl, CDK4/CyclinD1 (h) (2.5 μg/ml) is incubated with 50 mM Hepes pH 7.5, 8 mM NaF, 20 mM MgCl2, 1 mM DTT, 40 μg/ml of substrate GST-pRb, 2 nM [γ-^33P-ATP] (6.0 μCi/ml). After incubation of 60 minutes at room temperature, the reaction is stopped by addition of 40 μL of stop solution containing 8.7 mM EDTA, 0.17% Triton X-100, 25 mg/ml Glutathion SPA Beads (GE-healthcare). The plate is centrifuged and read for Scintillation topcount analyzer.

PLK2 (h) = PLK2 (h) (Homo sapiens, UniProt Q9NYY3); test: PLK2 human kinase inhibition, SPA
PLK3 (h) = PLK3 (h) (Homo sapiens, UniProt Q9H4B4); test: PLK3 human kinase inhibition, SPA

Row | Compound | PLK4 pIC50 (PLK4 (h)) | PLK1 pIC50 (PLK1 T210D (h)) | HCT-116 (cellular proliferation assay, Table 4) (HCT-116) | U87-MG (cellular proliferation assay, Table 4) (U87-MG) | A2780 (cellular proliferation assay, Table 4) (A2780) | MDA/MB231 (cellular proliferation assay, Table 4) (MDA-MB-231) | AuroraB pIC50 (AuroraB (h)) | GSK3b pIC50 (GSK3β (h)) | CDK1 pIC50 (CDK1/CyclinB (h)) | CDK4 pIC50 (CDK4/CyclinD1 (h)) | PLK2 pIC50 (PLK2 (h)) | PLK3 pIC50 (PLK3 (h))
1 | O=C1NCCOc2cccc(c2)-c2ccnc(n2)Nc2ccc(N3CCOCC3)c(c2)CN2C[C@H](O)C[C@@H]12 | 5.74 | <5 | <5 | <5 | 5.26 | <5 |  |  |  |  |  | 
2 | O=C1NCCOc2cccc(c2)-c2ccnc(n2)Nc2ccc(N3CCOCC3)c(c2)CN2CCC[C@@H]12 | 5.86 | <5 | <5 | <5 |  |  |  |  |  |  |  | 
3 | CC(C)Nc1cc2cc(c1)Nc1nccc(n1)-c1cccc(c1)CN(C)CCNC(=O)[C@H](CO)NC2 | 6.3 | <5 |  |  |  |  | 5.12 | 5.25 | 5.19 | <5 | <5 | <5
4 | O=C1NCc2cccc(c2)-c2ccnc(n2)Nc2ccc(N3CCOCC3)c(c2)CN[C@H]1CO | 6.11 | <5 | 5.29 | 5.04 | 5.04 | <5 | 5.24 | 6.51 | <5 | 5.48 | <5 | <5
